Here are results for 37 compounds from PubChem BioAssay AID445 (National Center for Advancing Translational Sciences (NCATS), 2006).

Structures are written as SMILES. Some of the results follow. A call without a number means that no potency is given here. Records with an inconclusive call do not appear. Activity calls are given as the source filed them. Calls come from the whole dose curve; as a rule, active = well fitted curve in the direction sought with a large enough effect in the signal ratio (not every such curve was filed as active); inconclusive = small, poorly fitted or top-dose-only effect, or a change in a side signal; inactive = flat fitted curve, though single readings scatter; the % refers to the signal ratio.
Potency is the fitted concentration of half-maximal effect.

This test is described as follows: IkB Signaling. The note with it: ABC-DLBCL IkBa-CBG/CBR dual luciferase ratio (green luciferase fused to IkBa over red control in OCI-Ly3 lymphoma cells), 4 h; series mostly up to 57.1 µM. The text has this:
NIH Molecular Libraries Screening Centers Network [MLSCN]
NIH Chemical Genomics Center [NCGC]
Nuclear factor kappa-B (NF-kappa-B) plays an important role in normal B cell development and survival. Diffuse large B cell lymphoma (DLBCL) is the most commonly observed type of non-Hodgkin's lymphoma. Gene expression analysis has identified an activated B cell-like subtype of DLBCL (ABC-DLBCL) which expresses known NF-kappa-B target genes. […] However, targets upstream of IKK have been largely unexplored and so nodes upstream of IKK in the NF-kappa-B pathway remain untested due to the lack of chemical probes.
A cell-sensor assay for I-kappa-B-alpha stabilization was developed with NIH investigator Dr. R. Eric Davis in Dr. Louis M. Staudt's laboratory. The assay uses green (CBG68) and red (CBR) emitting beetle luciferases [Chroma-Glo(TM) developed by Promega Corp.] where the green luciferase is fused to I-kappa-B-alpha and the red luciferase is present in its native state. Both luciferase genes are stably present in the OCI-Ly3 human ABC DLBCL cell line, but their expression is under the control of tetracycline-inducible promoters. Following the addition of doxycycline to induce expression of the luciferases, the green luminescence in control cultures rises only slowly because the CBG fusion partner I-kappa-B-alpha is targeted by IKK activity for rapid degradation. In contrast, green luminescence rises rapidly in the presence of proteasome inhibitors or IKK inhibitors. The rise in red luminescence of CBR is not affected by proteasome or IKK inhibitors, and serves as normalization for cell number and nonspecific effects. Compounds were screened as a concentration-titration series that ranged from 57 uM to 0.7 nM.
NCGC Assay Protocol Summary:
Cells were seeded in 1536-well plates at 5000 cells/3ul in IMDM medium containing 0.5% FBS, w/o phenol red, L-glutamine, 25 mM HEPES, 3 mg/ml sodium bicarbonate. After centrifugation for 1 min. at 1000 rpm, 23 nl of compounds or DMSO were delivered to each well using a pin tool. Then 1ul 80ng/ml doxycycline was dispensed into white solid 1536-well plates and the plates were incubated at 37C/5% C02 in a cell incubator for 4 hrs. Then 4 ul Chroma-Glo luminescent substrate mix (Promega) was added to each well. The plate was incubated at R.T. for 10-15 min. The plates were measured on a ViewLux plate reader for green luminescence (540/20 nm filter) and red luminescence (618/8 nm filter). The green and red luminescent signals were corrected for red and green luminescence filter overlap using previously determined filter calibration constants (determined using the procedure outlined in the Promega Technical Manual). The %Activity was determined from the ratio of corrected green/red luminescent values. Green luminescent and ratio %Activity was determined by normalizing to the difference in signal between basal cells (0% Activity) and cells incubated with 10 uM of the proteasome inhibitor MG-132 (100% Activity). Red luminescent %Activity was normalized to the difference between red luminesence in basal cells (0%Activity) and zero luminescence (-100% Activity).
Concentration-response curves were fitted to the signals arising from the green luminescence (I-kappa-B-alpha-luciferase fusion; IkB-luc) and the red luminescence (unfused luciferase; luc) as well as the calculated ratio. The concentration-effect curves were then classified based on curve quality (r2), response magnitude and degree of measured activity. Compounds were then categorized based on their concentration-response curves for all three datasets (Ikb-luc, luc and ratio).
Keywords: IKK, I-kappa-B, IkB, IkBa, cytotoxicity, luminescence, MLSMR, MLSCN, NIH Roadmap, qHTS, NCGC
For `CN(C(=O)Cc1ccc(Cl)c(Cl)c1)[C@@H]1CC[C@@]2(CCCO2)C[C@H]1N1CCCC1`, the IkBa stabilization activation result was “inactive”.

For the compound `NS(=O)(=O)Cc1ccc([As](=O)(O)O)cc1`, the IkBa stabilization activation is inactive: 1.33% [at 11.4 µM, scaled: untreated 0%, proteasome inhibitor 100%].

As for `O=C(CC(=O)c1ccccc1)O[C@H]1CN2CCC1CC2`, the IkBa stabilization activation is inactive: 0.569% [at 11.4 µM, scaled: untreated 0%, proteasome inhibitor 100%].

`CCOP1(=S)c2c(C)nn(CCC#N)c2N=C(c2ccc(F)cc2)N1C` (configuration not stated): the IkBa stabilization activation result was “inactive”.

On to `NC(=O)Nc1ccc([As](=O)(O)O)cc1`, for which the IkBa stabilization activation entry was “inactive”.

On to `O=[As](O)(O)c1ccc([As](=O)(O)O)cc1`, for which the IkBa stabilization activation is inactive: 2.33% [at 11.4 µM, scaled: untreated 0%, proteasome inhibitor 100%].

`O=P(Nc1nccs1)(c1ccccc1)c1nc2ccccc2s1` (configuration not stated): the Potency is active: 3.98 µM.

On to `CCOP1(=S)c2c(C)nn(CCC#N)c2N=C(c2ccccc2F)N1C` (configuration not stated), for which the IkBa stabilization activation entry was “inactive”.

Take `O=P1(Nc2ccc(Br)cn2)COc2ccccc2OC1`: the IkBa stabilization activation result was “inactive”.

`O=P1(Nc2ncccn2)COc2ccccc2OC1`: the IkBa stabilization activation result is “inactive”.

For `Cc1nn(-c2ccccc2)c2c1P(=O)(N1CCOCC1)N(C)C(c1ccccc1)=N2` (configuration not stated), the IkBa stabilization activation entry was “inactive”.

In the case of `CN(C(=O)Cc1ccc(Cl)c(Cl)c1)[C@@H]1CCCC[C@H]1N1CCCC1`, the IkBa stabilization activation result was “inactive”.

Regarding `Clc1n[nH]nc1-c1nn[nH][15n]1`, the IkBa stabilization activation entry was “inactive”.

In the case of `O=P1(Nc2ccccn2)COc2ccccc2OC1`, the IkBa stabilization activation result is “inactive”.

For `O=C(COc1ccccc1)OC1CN2CCC1CC2` (configuration not stated), the IkBa stabilization activation result is “inactive”.

In the case of `O=C(O)[C@@H](O)c1ccc([As](=O)(O)O)cc1`, the IkBa stabilization activation is inactive: 1.01% [at 11.4 µM, scaled: untreated 0%, proteasome inhibitor 100%].

As to `COP1(=S)c2c(C)nn(CCC#N)c2N=C(c2ccc(F)cc2)N1C` (configuration not stated), the IkBa stabilization activation entry was “inactive”.

With `[N-]=[N+]=NCC(N)=O`, the IkBa stabilization activation is inactive: 2.04% [at 11.4 µM, scaled: untreated 0%, proteasome inhibitor 100%].

Take `O=[As]c1ccc(S(=O)(=O)NCCO)cc1` (configuration not stated): the IkBa stabilization activation is inactive: 4.44% [at 11.4 µM, scaled: untreated 0%, proteasome inhibitor 100%].

For `NC(=O)Nc1cc([As](=O)(O)O)cc(I)c1O`, the IkBa stabilization activation is inactive: 1.12% [at 11.4 µM, scaled: untreated 0%, proteasome inhibitor 100%].

`O=C(OC1CN2CCC1CC2)C12CC3CC(CC(C3)C1)C2` (configuration not stated): the IkBa stabilization activation result was “inactive”.

Take `NCC[C@@H](N)CSP(=O)(O)O`: the IkBa stabilization activation is inactive: 0.365% [at 11.4 µM, scaled: untreated 0%, proteasome inhibitor 100%].

As for `O=[N+]([O-])c1ccc(C[As](=O)(O)O)cc1`, the IkBa stabilization activation was inactive: 8.68% [at 11.4 µM, scaled: untreated 0%, proteasome inhibitor 100%].

`C(Cc1nn[nH]n1)c1nn[nH]n1`: the IkBa stabilization activation was inactive: -0.231% [at 11.4 µM, scaled: untreated 0%, proteasome inhibitor 100%].

`[N-]=[N+]=NCC(O)CN=[N+]=[N-]` (configuration not stated): the IkBa stabilization activation is inactive: 0.463% [at 11.4 µM, scaled: untreated 0%, proteasome inhibitor 100%].

For the compound `CN(C(=O)Cc1ccc(Cl)c(Cl)c1)[C@H]1CCCC[C@@H]1N1CCCC1`, the IkBa stabilization activation result is “inactive”.

Turning to `CN(C(=O)Cc1ccccc1)[C@@H]1CC[C@@]2(CCCO2)C[C@H]1N1CCCC1`, the IkBa stabilization activation entry was “inactive”.

In the case of `O=C(CO)Nc1ccc([As](=O)(O)O)cc1`, the IkBa stabilization activation was inactive: 1.3% [at 11.4 µM, scaled: untreated 0%, proteasome inhibitor 100%].

As for `C[C@@H](O)COc1ccc([As](=O)(O)O)cc1N`, the IkBa stabilization activation is inactive: 1.06% [at 11.4 µM, scaled: untreated 0%, proteasome inhibitor 100%].

For the compound `CN1CCC[C@H](OC(=O)C(c2ccccc2)c2ccccc2)C1`, the IkBa stabilization activation was inactive: -0.385% [at 11.4 µM, scaled: untreated 0%, proteasome inhibitor 100%].

As to `c1nnnn1CCn1cnnn1`, the IkBa stabilization activation result was “inactive”.

As to `O=P(Nc1nccs1)(c1ccccc1)c1ccccc1`, the IkBa stabilization activation entry is “inactive”.

For `O=C(OC1CN2CCC1CC2)c1cccc(Cl)c1` (configuration not stated), the IkBa stabilization activation entry was “inactive”.

With `Cc1cc([N+](=O)[O-])cc([N+](=O)[O-])c1O`, the IkBa stabilization activation result is “inactive”.

For `[N-]=[N+]=Nc1ccc([As](=O)(O)O)cc1`, the IkBa stabilization activation was inactive: 0.237% [at 11.4 µM, scaled: untreated 0%, proteasome inhibitor 100%].

As to `COC(=O)c1cc2c(s1)N=C(c1ccccc1)N(C)P2(=O)N1CCOCC1` (configuration not stated), the IkBa stabilization activation entry is “inactive”.

As for `O=P1(Nc2nc3ccc(Cl)cc3s2)COc2ccccc2O1` (configuration not stated), the IkBa stabilization activation entry was “inactive”.
